Like-named read-outs stand apart in the source and are kept apart here.
Target: Beta Secretase enzyme (BACE1) (Homo sapiens, UniProt P56817)
Assay: In vitro enzymatic BACE FRET assay
Type: biochemical
Procedure: In Vitro Enzymatic BACE FRET (Fluorescence Resonance Energy Transfer) Assay (Enzyme Assay Data in the Example Tables I and II)
The assay buffer used in this screen is 0.05 M acetate, pH 4.2, 10% DMSO final, 100 uM genapol (which is a nonionic detergent, below its Critical Micelle Concentration). […] This assay is effectively started by the addition of FRET substrate (50 nM) and the combination is incubated for one hour. The FRET assay is terminated with by addition of Tris buffer, which raises the pH to neutrality, and the fluorescence is determined. The FRET substrate is a peptide with commercially available fluorophore and quencher, on opposite sides of the BACE cleavage site. Proteolytic cleavage of the FRET substrate releases quenching of fluorescence (excitation […] and […]).

By UniProt entry, the sequences of proteins in these tests, tags left out. Residues count along the entry.
UniProt P56817, 46-501: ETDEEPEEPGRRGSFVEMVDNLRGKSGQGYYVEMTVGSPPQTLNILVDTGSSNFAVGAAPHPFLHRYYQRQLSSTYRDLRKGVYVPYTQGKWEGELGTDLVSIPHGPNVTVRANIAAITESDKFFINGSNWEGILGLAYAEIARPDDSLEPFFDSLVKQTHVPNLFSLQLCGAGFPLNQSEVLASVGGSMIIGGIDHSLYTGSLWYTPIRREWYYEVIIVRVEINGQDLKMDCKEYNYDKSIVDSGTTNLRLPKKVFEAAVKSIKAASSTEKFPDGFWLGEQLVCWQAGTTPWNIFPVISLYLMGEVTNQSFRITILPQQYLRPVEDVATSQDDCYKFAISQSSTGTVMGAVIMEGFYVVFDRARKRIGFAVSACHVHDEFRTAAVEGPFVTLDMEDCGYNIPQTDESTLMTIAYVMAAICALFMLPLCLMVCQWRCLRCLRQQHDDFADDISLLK

Row | SMILES | IC50 (average IC50, enzyme assay) [nM] | IC50 [nM]
1 | CC1(C)C(N)=N[C@@]2(c3cc(Nc4nccc5cc(Cl)cnc45)ccc3F)C[C@H]2S1(=O)=O [Example 183, (1R,6R)-4-amino-6-(5-((3-chloro-1,7-naphthyridin-8-yl)amino)-2-fluorophenyl)-3,3-dimethyl-2-thia-5-azabicyclo[4.1.0]hept-4-ene 2,2-dioxide] | 3.05 | –
2 | COc1cnc(C(=O)Nc2ccc(F)c([C@]3(C)CSCC(N)=N3)c2)cn1 [Example 43, (R)—N-(3-(5-amino-3-methyl-3,6-dihydro-2H-1,4-thiazin-3-yl)-4-fluorophenyl)-5-methoxypyrazine-2-carboxamide] | – | 23.6

— US20140107109A1, “AMINO-DIHYDROTHIAZINE AND AMINO-DIOXIDO DIHYDROTHIAZINE COMPOUNDS AS BETA-SECRETASE ANTAGONISTS AND METHODS OF USE” (Amgen Inc., priority 2012, published 2014)
